# T1: purified recombinant mouse ART1 (mouse, UniProt Q60935 23-290)
# T1 construct: Produced in HEK293 cells and purified; also called moART1; murine ART1
# T1 sequence: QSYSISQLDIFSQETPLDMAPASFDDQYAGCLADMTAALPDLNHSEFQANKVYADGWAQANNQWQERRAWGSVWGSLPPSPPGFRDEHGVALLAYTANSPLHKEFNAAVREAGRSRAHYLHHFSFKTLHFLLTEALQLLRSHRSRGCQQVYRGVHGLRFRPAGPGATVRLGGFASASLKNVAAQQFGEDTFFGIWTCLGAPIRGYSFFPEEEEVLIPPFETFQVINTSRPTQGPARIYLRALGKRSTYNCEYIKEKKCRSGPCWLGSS
# T2: ART3 (human ART1 paralog) (human, UniProt Q13508 27-362, limits assumed)
# T2 construct: Coated on the ELISA plate; The construct is not described
# T2 sequence (looked up): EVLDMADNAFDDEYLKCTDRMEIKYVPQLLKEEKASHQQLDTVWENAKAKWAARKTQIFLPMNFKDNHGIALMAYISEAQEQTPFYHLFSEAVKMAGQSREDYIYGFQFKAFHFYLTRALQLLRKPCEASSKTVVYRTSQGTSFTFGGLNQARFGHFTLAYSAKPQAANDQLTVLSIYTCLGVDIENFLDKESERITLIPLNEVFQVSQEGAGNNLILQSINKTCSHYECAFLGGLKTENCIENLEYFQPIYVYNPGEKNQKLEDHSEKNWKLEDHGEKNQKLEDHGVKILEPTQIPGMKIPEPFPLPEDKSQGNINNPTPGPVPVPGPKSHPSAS
# T3: ART4 (human ART1 paralog) (human, UniProt Q93070 47-285, limits assumed)
# T3 construct: Coated on the ELISA plate; The construct is not described
# T3 sequence (looked up): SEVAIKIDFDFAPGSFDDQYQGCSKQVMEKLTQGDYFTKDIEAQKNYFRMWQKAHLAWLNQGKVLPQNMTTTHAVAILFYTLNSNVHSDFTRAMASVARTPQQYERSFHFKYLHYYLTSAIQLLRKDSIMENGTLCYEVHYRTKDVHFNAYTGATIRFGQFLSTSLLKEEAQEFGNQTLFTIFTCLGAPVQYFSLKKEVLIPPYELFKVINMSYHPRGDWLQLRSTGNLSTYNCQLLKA
# T4: ART5 (human ART1 paralog) (human, UniProt Q96L15 23-291, limits assumed)
# T4 construct: Coated on the ELISA plate; The construct is not described
# T4 sequence (looked up): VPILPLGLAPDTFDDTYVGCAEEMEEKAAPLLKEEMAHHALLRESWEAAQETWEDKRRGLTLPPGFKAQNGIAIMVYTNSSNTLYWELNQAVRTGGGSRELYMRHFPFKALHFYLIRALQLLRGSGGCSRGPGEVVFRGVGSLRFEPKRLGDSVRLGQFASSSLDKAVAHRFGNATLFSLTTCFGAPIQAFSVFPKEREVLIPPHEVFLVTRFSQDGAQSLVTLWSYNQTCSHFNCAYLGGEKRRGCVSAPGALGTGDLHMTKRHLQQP
# T5: purified recombinant human ART1 (human, UniProt P52961 23-295)
# T5 construct: Produced in HEK293 cells and purified; also called huART1; human ADP-ribosyltransferase 1
# T5 sequence: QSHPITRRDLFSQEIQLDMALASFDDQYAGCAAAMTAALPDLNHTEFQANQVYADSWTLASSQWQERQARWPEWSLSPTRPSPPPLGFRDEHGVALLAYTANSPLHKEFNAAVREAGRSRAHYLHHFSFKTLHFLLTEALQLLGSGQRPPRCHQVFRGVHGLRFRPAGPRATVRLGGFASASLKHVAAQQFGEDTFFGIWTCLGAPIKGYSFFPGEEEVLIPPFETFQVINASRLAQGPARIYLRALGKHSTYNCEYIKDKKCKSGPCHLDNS
# T6: Cynomolgus ART1 (cynomolgus, UniProt A0A2K5WCR3 23-295)
# T6 construct: Analyte in Biacore; The construct is not described
# T6 sequence: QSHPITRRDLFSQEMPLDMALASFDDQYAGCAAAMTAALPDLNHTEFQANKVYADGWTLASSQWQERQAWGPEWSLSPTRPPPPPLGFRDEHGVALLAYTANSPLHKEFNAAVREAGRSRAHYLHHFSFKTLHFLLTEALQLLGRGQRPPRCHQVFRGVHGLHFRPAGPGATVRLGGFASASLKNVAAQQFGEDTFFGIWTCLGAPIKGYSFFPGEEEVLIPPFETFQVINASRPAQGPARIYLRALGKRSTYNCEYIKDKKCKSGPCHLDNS
# B1: TDI-Y-009 (22C12 hLC1 IgG4) (antibody, V domains shown)
# VH: QVTLKESGPVLVKPTETLTLTCTVSGFSLSNARMGVSWIRQPPGKALEWLAHIFSNDEKSYSTSLKSRLTISKDTSKSQVVLTMTNMDPVDTATYYCARIYGGDSWGYFDNWGQGTLVTVSS
# VL: DIQLTQSPSFLSASVGDRVTITCRASSSVSYMHWYQQKPGTSPKRLIYDTSKLASGVPSRFSGSGSGTEYTLTISSLQPEDFATYYCQQWSSNPPTFGQGTKLEIKR
# Tests used:
# [1] = biological target: T1, purified recombinant mouse ART1; test: SPR, Biacore 4000
# Protocol: (§1) Sequence identity of cynomolgus and mouse ART1 to human ART1 are 95% and 76% respectively. Studies were run on Biacore 4000 using a C1 sensor chip. Briefly, goat anti-human antibody was amine coupled to the C1 sensor chip using standard NHS/EDC (0.1/0.4 M) activation, followed by the antibody at 50 μg/mL in 10 mM NaAc pH 5.0 and a 1 M ethanolamine blocking step. All studies were done in PBS (NaCl 137 mM, KCl 2.7 mM, Na2HPO4 10 mM, and KH2PO4 1.8 mM @ pH 7.4). Data were collected at 25° C. For each binding cycle, the mAb was diluted to 50 nM, 10 nM, 3.3 nM and 1.1 nM and captured for 60 seconds. The dissociation phase was monitored for 10 minutes followed by a regeneration step. A new aliquot of antibody was captured for each binding cycle. The processed sensorgram data were globally fit using a simple 1:1 interaction model. […] Binding to mouse ART1 was about 2-fold lower relative to human ART (Table 11).
# [2] = biological target: T2, ART3 (human ART1 paralog); test: ELISA, paralog coated at 2.5 µg/mL, anti-human HRP secondary
# Protocol: (§2) FIG. 33. Binding of TDI-Y-009 (22C12 hLC1 IgG4) to ART1 and ART1 paralogs. Bound antibody was detected through colorimetric reaction mediated by the HRP-conjugated secondary antibody reagent.
# (§3) To assess selectivity of TDI-Y-009, binding to ART1 paralogs (ART3, ART4, ART5) was performed by ELISA. Briefly, ART1 or the paralogs were plated on a high binding ELISA plate at 2.5 μg/mL in 1×PBS and incubated o/n at 4° C. with shaking. After blocking, 1:5 serial dilutions of TDI-Y-009 mAb were added to the plate and incubated at RT for 90′. After washing, a 1:12,000 dilution of a goat anti-human secondary HRP labeled mAb was then added and incubated at RT for 1 hour before washing, adding the TMB substrate and reading out absorbance at 450 nm following color development and reaction quenching with acid.
# [3] = biological target: T3, ART4 (human ART1 paralog); test: as above
# Protocol: as §2, §3
# [4] = biological target: T4, ART5 (human ART1 paralog); test: as above
# Protocol: as §2, §3
# [5] = biological target: T5, purified recombinant human ART1; test: binding affinity to human ART1 (summary table; Biacore per Table 11)
# Protocol: as §1
# [6] = biological target: T1, purified recombinant mouse ART1; test: cross-reactivity to mouse ART1 (summary table; Biacore per Table 11)
# Protocol: as §1
# [7] = biological target: T7, ART1 over-expressed on KP1 cells (KP1-ART1^OE); test: flow cytometry on ART1 over-expressing KP1 cells, anti-human IgG Fc detection
# T7 construct: whole, on cells; The host cells are murine; also called KP1-ART1OE cells; ART1 over-expressing KP1 cells
# Protocol: FIG. 34. Binding of the 22C12 hLC1 IgG4 (TDI-Y-009) antibody to ART1 over-expressing KP1 cells.
# Briefly, KP1-ART1^OE or KP1-ART1 knockdown cells were seeded on plates at 100,000 cells/well. Test antibodies starting at 100 μg/mL were serially diluted 1:5 then added to cells and incubated for 30 minutes on ice followed by washes. Cells were then stained with an anti-human IgG Fc and incubated for 30 minutes on ice followed by washes. Cells were resuspended in Flow buffer containing 1000× diluted SYTOX green dead stain and plates were read on Cytoflex flow cytometer. Dose-responsive binding to KP1-ART1^OE cells by TDI-Y-009 was observed (FIG. 34), but not to KP1-ART1 knockdown cells (data not shown).
# Cynomolgus ART1 [8] = biological target: T6, Cynomolgus ART1; test: cross-reactivity to cynomolgus ART1 (summary table; Biacore per Table 11)
# Protocol: as §1
# [9] = biological target: T5, purified recombinant human ART1; test: SPR, Biacore 4000, C1 chip, mAb captured by goat anti-human antibody, 25 °C, 1:1 model
# Protocol: as §1
# [10] = biological target: T1, purified recombinant mouse ART1; test: as above
# Protocol: as §1
# Cynomolgus ART1 [11] = biological target: T6, Cynomolgus ART1; test: as above
# Protocol: as §1
# [12] = biological target: T5, purified recombinant human ART1; test: ELISA, ART1 coated at 2.5 ug/mL, 1:5 dilutions of the antibody, HRP-labelled goat anti-human secondary, OD450
# Protocol: as §3
binder,measurement,setting,value
B1,fold lower binding relative to human ART1,[1],~2 fold
same,binding result,[2],no binding (tested: 1.3 µM (200 µg/mL))
same,binding result,[3],no binding (tested: 1.3 µM (200 µg/mL))
same,binding result,[4],no binding (tested: 1.3 µM (200 µg/mL))
same,Kd,[5],1.36 nM
same,Kd,[6],2.7 nM
same,EC50,[7],4.4 nM
same,Kd,Cynomolgus ART1 [8],1.46 nM
same,Kd,[9],1.36 nM
same,koff,[9],0.00016 s⁻¹
same,kon,[9],120000 M⁻¹ s⁻¹
same,Kd,[10],2.7 nM
same,koff,[10],0.00033 s⁻¹
same,kon,[10],120000 M⁻¹ s⁻¹
same,Kd,Cynomolgus ART1 [11],1.46 nM
same,koff,Cynomolgus ART1 [11],0.00026 s⁻¹
same,kon,Cynomolgus ART1 [11],180000 M⁻¹ s⁻¹
same,EC50 (read off the curve),[12],~0.04 µg/mL

# — patent US20250382381A1 (CORNELL UNIVERSITY, published 2025)
